IC50 data for one molecule are collected here from BindingDB's records for patent US10538508 (Oncoarendi Therapeutics, 2020).

Chains of the proteins cited; added tags and fusions are not shown. Lines headed by an entry give the natural chain unless they say otherwise; changes in a name come on top.
UniProt Q13231: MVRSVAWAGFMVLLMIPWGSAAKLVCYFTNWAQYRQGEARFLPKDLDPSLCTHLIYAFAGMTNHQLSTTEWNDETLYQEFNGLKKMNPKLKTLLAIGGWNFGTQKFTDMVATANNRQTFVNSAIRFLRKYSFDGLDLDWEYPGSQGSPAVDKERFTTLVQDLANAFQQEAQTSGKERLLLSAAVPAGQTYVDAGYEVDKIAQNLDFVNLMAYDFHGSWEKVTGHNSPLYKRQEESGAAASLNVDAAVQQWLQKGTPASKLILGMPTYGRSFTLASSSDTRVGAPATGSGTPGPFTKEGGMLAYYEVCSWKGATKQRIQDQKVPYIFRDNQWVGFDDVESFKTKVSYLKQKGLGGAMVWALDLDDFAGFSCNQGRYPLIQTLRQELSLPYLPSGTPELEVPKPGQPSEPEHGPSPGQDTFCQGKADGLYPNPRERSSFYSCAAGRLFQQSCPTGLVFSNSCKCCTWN

In the experiment the target is Chitotriosidase-1 (Homo sapiens, UniProt Q13231). Description: ASSAY_NAME: HumanCHIT1 Activity Assay DESCRIPTION: An enzymatic assay with recombinant human CHIT1 was used in order to establish inhibitory activity of the compounds (Boot et al., 2001, JBC: 276). The assay was run in the 96-well plate format, each reaction in the total volume of 100 μL. 4-methylumbelliferyl β-D-N,N′,N″-triacetylchitotriose was used as a substrate for the en.

For `Nc1nnc(N2CCC(N3CCC[C@@H]3c3cccc(Cl)c3)CC2)[nH]1` [US10538508, Example 24], the half-inhibitory concentration (IC50) was under 100 nM.

By IC50 is commonly meant the midpoint of a concentration-inhibition curve.
